# Data from patent US11684676B2, “Site-specific antibody-drug conjugates by ADP-ribosyl cyclases” (University of Southern California, priority 2020, dated 2023).
# Key:
# [1] = ADP-ribosyl cyclase activities of anti-hCLL-1-CD38 fusions; assay type: biochemical; conditions: versus recombinant human CD38 extracellular domain; NGD+ 100 μM
# Procedure: ADP-Ribosyl Cyclase Activities.
# The rate of cyclic guanine dinucleotide phosphate-ribose (cGDPR) generation was monitored by a Synergy H1 plate reader (BioTek, VT, USA) for its signature fluorescence (excitation at 300 nm; emission at 410 nm) for 5 minutes.
# [2] = system: luciferase-expressing U937 cells; assay: In vivo efficacy study in AML mouse xenograft; parameters: species or system mice
# Procedure: Female NOD. Cg-Prkdc^scid Il2rg^tm1Wj1/SzJ (NSG) mice at age of 6 weeks were purchased from the Jackson Laboratory (ME, USA). Each mouse was inoculated with 1 million luciferase expressing U937 cells in 200 μL DPBS by tail vein I.V. injection. On day 2 post U937 cells implantation, mice were randomized into 5 per group and given 150 mg kg^−1 of D-luciferin (Syd Labs, MA, USA), followed by imaging using an IVIS Lumina III Imaging System (PerkinElmer, MA, USA) for luminescence generated by luciferase-expressing U937 cells. […] In order to conduct both the interim efficacy analysis (when conditions of control group mice reach the endpoint per IACUC protocol) based on tissue sample analysis by flow cytometry as well as study for survival difference between groups, 2 groups of mice were given treatment option (3), (4), (5) or (6) with one group for interim efficacy analysis while the other group for survival analysis. Since the completion of first IVIS imaging, all live mice were continued to be imaged by IVIS weekly.
# When mice in the control group (treatment option (1)) reached the humane endpoint, they were euthanized together with other groups of mice given the treatment option (2)-(6). Blood, spleen, and bone marrow samples were collected from each group, and samples were prepared into single cell suspension with red blood cells lysed by red blood cell lysis buffer (Biolegend, CA, USA) in DPBS containing 2% FBS. […] All samples were acquired by a BD LSRFortessa X-20 Cell Analyzer (CA, USA) and analyzed by FACSDiva and FlowJo software. Data for blood samples were first gated based on morphology (FSC-A/SSC-A) for peripheral blood myeloid cell population and then all live cells (propidium iodide-staining negative) populations were analyzed on fluorescence intensities of different antibodies used for staining. Data for spleen and bone marrow samples were first gated based on morphology (FSC-A/SSC-A) to remove non-cell debris, and then all live cells (propidium iodide-staining negative) populations were analyzed on fluorescence intensities of different antibodies used for staining.
molecule,measurement,setting,value
DAR4-ARC-IgG: anti-hCLL-1 antibody 1075.7 with CD38 fused to C-termini of heavy and light chains (antibody) heavy: DIQLQESGPGLVKPSQSLSLTCSVTGYSITSAYYWNWIRQFPGNKLEWMGYISYDGRNNYNPSLKNRISITRDTSKNQFFLKLNSVTTEDTATYYCAKEGDYDVGNYYAMDYWGQGTSVTVSSARTKGPSVFPLAPSSKSTSGGTAALGCLVKDYFPEPVTVSWNSGALTSGVHTFPAVLQSSGLYSLSSVVTVPSSSLGTQTYICNVNHKPSNTKVDKKV[about 500 residues with a human IgG1 Fc skipped] light: ENVLTQSPAIMSASPGEKVTMTCRASSNVISSYVHWYQQRSGASPKLWIYSTSNLASGVPARFSGSGSGTSYSLTISSVEAEDAATYYCQQYSGYPLTFGAGTKLELKRAAAAPSVFIFPPSDEQLKSGTASVVCLLNNFYPREAKVQWKVDNALQSGNSQESVTEQDSKDSTYSLSSTLTLSKADYEKHKVYACEVTHQGLSSPVTKSFNRGECGGGGS[about 250 residues skipped],catalytic activity,[1],significantly higher catalytic activities
same,median survival,[2]; 5 mg/kg,13 days
same,proliferation of engrafted U937 cells (IVIS luminescence),"[2]; 5 mg/kg every 72 hours, 3 times i.v.",rapid proliferation of U937 cells
same,"levels of engrafted U937 cells in bone marrow, spleen, and blood","[2]; 5 mg/kg, day 13, flow cytometry",higher levels of engrafted U937 cells
